Laboratory results from patent US20250381289A1, “EGFR AND C-MET BISPECIFIC BINDING AGENTS, CONJUGATES THEREOF AND METHODS OF USING THE SAME” (GENMAB A/S, priority 2024, published 2025).

System: EGFR and cMET co-expressed tumor cell lines (A431, A549, MDA-MB-468, MKN-45, NCI-H441, NCI-H1975)
Experiment: Binding activity of parent mAbs by flow cytometry
Settings: flow cytometry on tumor cell lines, FIGS. 1A-1F, Table 5; compared with zalutumumab (zalu) or cetuximab
Description: EGFR and cMET co-expressed tumor cell lines including A431 (ATCC® CRL-1555), A549 (ATCC® CCL-185, Provided by Procell), MDA-MB-468 (ATCC® HTB-132, Provided by Procell), MKN-45 (CL-0292, Provided by Procell), NCI-H441 (ATCC® HTB-174, Provided by COBIOER), NCI-H1975 (ATCC® CRL-5908, Provided by Procell) were selected for evaluating antibody binding activity by flow cytometry.
A431 was cultured with DMEM medium (Gibco, Cat #C11995500BT) containing 10% FBS. MDA-MB-468, MKN-45, NCI-H441 and NCI-H1975 were cultured with RPMI 1640 medium (Gibco, Cat #11875093) containing 10% FBS. A549 was cultured with F12K medium (Gibco, Cat #21127030) containing 10% FBS. Each antibody was incubated with different cell lines (1×10^5 cells/well) for 30 min in 0.2 mL FACS buffer (1×PBS with 0.1% BSA) at 4° C. After wash, cells were incubated with 100 μL PE-conjugated anti human Fc (Abcam, Ab98596, 1:500 dilution) for 30 min at 4° C. After wash with PBS, cells were resuspended in FACS buffer and analyzed by flow cytometer (Beckman, CytoFLEX).

With “Cetuximab: parent EGFR mAb; sequences in Table 2 [reference compound]” the “binding activity / affinity of parent EGFR mAbs (summary)” value was “Strong affinity, chimeric, binding remains”.
